Binding of CDR-mutated scFvs to a peptide of the spike HR2 region

Target: peptide PDVDLGDISGINAS, taken from heptad repeat 2 (HR2) of SARS-CoV-2 spike.

Parent scFv Ab-14: VH joined to VL by three GGGGS repeats. Changes lie in the heavy chain CDRs alone.
VH: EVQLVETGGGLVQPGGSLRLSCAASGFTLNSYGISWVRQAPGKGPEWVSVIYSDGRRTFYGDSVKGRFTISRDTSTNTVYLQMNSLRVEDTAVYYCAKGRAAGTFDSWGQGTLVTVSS
VL: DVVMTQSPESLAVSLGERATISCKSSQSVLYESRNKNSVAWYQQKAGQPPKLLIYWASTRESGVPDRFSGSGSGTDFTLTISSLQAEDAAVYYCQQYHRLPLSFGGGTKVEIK

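Variants in AAYL49 differ from the parent at up to three CDR positions; double and triple changes were sampled at random. In AlphaSeq, yeast of one mating type display the scFv and yeast of the other type display the target. After mating in shaken culture at 30 °C for 16 h, diploids were selected and their barcode pairs sequenced. The ratio of observed to expected reads was calibrated, replicate by replicate, on BCL2-family standards whose Kd was known from biolayer interferometry. There are three technical replicates.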

Changes read parent residue, position, new residue, counted from the first residue of the VH shown. The read-out is the apparent dissociation constant on a log10 scale (nM): the lower, the stronger. Replicates are averaged; those with no signal do not enter the mean. Where no diploid with the target was found in that replicate, the entry reads "ND": below detection, most likely a poor binder, though not proof of it. As a blank, each scFv also met three strains without target: over library AAYL49, 15% of these pairings were detected, typically at 4.06 and seldom below 2.83. The control count says in how many pairings with the empty strains this scFv gave a signal, with their mean in brackets.

{"changes": "L29R R56D A102H", "log10 Kd (nM) by replicate": "ND ND ND", "log10 Kd (nM), mean": "ND", "empty controls": "0 of 9"}
{"changes": "S35F G55Q R56H", "log10 Kd (nM) by replicate": "ND ND 4.44", "log10 Kd (nM), mean": "4.44", "empty controls": "0 of 9"}
{"changes": "Y32V D62W V64Y", "log10 Kd (nM) by replicate": "ND ND ND", "log10 Kd (nM), mean": "ND", "empty controls": "0 of 9"}
{"changes": "I34R F59L Y60N", "log10 Kd (nM) by replicate": "ND 4.58 ND", "log10 Kd (nM), mean": "4.58", "empty controls": "2 of 9 (3.28)"}
{"changes": "S53T G99H", "log10 Kd (nM) by replicate": "2.57 2.33 3.07", "log10 Kd (nM), mean": "2.66", "empty controls": "0 of 9"}
{"changes": "N30F R56D G61Y", "log10 Kd (nM) by replicate": "ND 4.19 ND", "log10 Kd (nM), mean": "4.19", "empty controls": "2 of 9 (3.57)"}
{"changes": "I51R S53C G99K", "log10 Kd (nM) by replicate": "ND 3.34 ND", "log10 Kd (nM), mean": "3.34", "empty controls": "0 of 9"}
{"changes": "S35F V50T Y52G", "log10 Kd (nM) by replicate": "5.92 ND ND", "log10 Kd (nM), mean": "5.92", "empty controls": "3 of 9 (4.86)"}
{"changes": "T58V K65V", "log10 Kd (nM) by replicate": "1.51 1.16 1.66", "log10 Kd (nM), mean": "1.44", "empty controls": "0 of 9"}
{"changes": "F27R S31D S107D", "log10 Kd (nM) by replicate": "2.17 2.36 2.74", "log10 Kd (nM), mean": "2.42", "empty controls": "0 of 9"}
{"changes": "Y32D S63Q V64P", "log10 Kd (nM) by replicate": "ND ND ND", "log10 Kd (nM), mean": "ND", "empty controls": "2 of 9 (3.77)"}
{"changes": "T28D F59K T104L", "log10 Kd (nM) by replicate": "ND ND ND", "log10 Kd (nM), mean": "ND", "empty controls": "1 of 9 (4.26)"}
{"changes": "Y52Q Y60H V64T", "log10 Kd (nM) by replicate": "4.42 ND 4.00", "log10 Kd (nM), mean": "4.21", "empty controls": "5 of 9 (3.85)"}
{"changes": "G26T G99K F105Y", "log10 Kd (nM) by replicate": "4.18 ND ND", "log10 Kd (nM), mean": "4.18", "empty controls": "2 of 9 (4.67)"}
{"changes": "I51L V64N S107R", "log10 Kd (nM) by replicate": "ND ND ND", "log10 Kd (nM), mean": "ND", "empty controls": "1 of 9 (3.36)"}
{"changes": "T28C S35C R100P", "log10 Kd (nM) by replicate": "ND ND ND", "log10 Kd (nM), mean": "ND", "empty controls": "2 of 9 (4.07)"}
{"changes": "I51V D54G S63D", "log10 Kd (nM) by replicate": "6.00 ND 3.33", "log10 Kd (nM), mean": "4.67", "empty controls": "4 of 9 (4.28)"}
{"changes": "S31T G33D G99R", "log10 Kd (nM) by replicate": "ND 4.93 ND", "log10 Kd (nM), mean": "4.93", "empty controls": "1 of 9 (5.41)"}
{"changes": "T28N S35T G61W", "log10 Kd (nM) by replicate": "ND ND ND", "log10 Kd (nM), mean": "ND", "empty controls": "1 of 9 (3.11)"}
{"changes": "F27D T28H G99N", "log10 Kd (nM) by replicate": "2.31 2.41 2.92", "log10 Kd (nM), mean": "2.55", "empty controls": "5 of 9 (4.39)"}

Again, the first 2 entries without any signal:

changes	log10 Kd (nM) by replicate	log10 Kd (nM), mean	empty controls
L29R R56D A102H	ND ND ND	ND	0 of 9
Y32V D62W V64Y	ND ND ND	ND	0 of 9

For reference, the parent read 0.65 as the reference entry and 4.11 (one replicate of three) as a member of this library.

Values reported by Engelhart et al. 2022, doi:10.1038/s41597-022-01779-4 (FLAb copy).